{"sequences": {"note": "By UniProt entry, the sequences of proteins in these tests, tags left out.", "UniProt P35372, whole entry, looked up": "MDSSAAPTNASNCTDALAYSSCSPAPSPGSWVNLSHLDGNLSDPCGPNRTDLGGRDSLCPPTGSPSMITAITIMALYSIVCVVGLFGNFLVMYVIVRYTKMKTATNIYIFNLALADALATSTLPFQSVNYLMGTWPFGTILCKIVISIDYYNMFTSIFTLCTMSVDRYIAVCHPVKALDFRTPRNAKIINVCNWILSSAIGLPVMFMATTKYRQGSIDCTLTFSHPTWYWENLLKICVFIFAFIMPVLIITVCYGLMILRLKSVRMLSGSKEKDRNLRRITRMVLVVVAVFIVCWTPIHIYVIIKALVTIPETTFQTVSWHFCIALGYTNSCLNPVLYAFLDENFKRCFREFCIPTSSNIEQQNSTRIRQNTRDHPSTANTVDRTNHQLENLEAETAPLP", "UniProt P41143, whole entry, looked up": "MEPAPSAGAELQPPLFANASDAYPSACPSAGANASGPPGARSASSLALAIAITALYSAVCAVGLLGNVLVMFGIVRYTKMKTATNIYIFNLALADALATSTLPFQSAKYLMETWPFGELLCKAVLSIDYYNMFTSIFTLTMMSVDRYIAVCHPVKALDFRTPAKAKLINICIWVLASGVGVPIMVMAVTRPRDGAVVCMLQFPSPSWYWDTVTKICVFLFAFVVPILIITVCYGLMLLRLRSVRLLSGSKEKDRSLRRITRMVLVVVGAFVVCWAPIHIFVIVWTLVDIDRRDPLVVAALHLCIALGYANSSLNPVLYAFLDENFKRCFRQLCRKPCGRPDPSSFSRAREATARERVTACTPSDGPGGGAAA"}, "source": "PubChem BioAssay AID504326", "about": "(The Scripps Research Institute Molecular Screening Center, 2011)", "note": "This is a selection; strong and weak results do not stand in their true shares. Some of these compounds have results that are not shown, active ones among them. The source made the active and inactive calls. Cut-off read from the data, not from the text of the source: active = activation above about 18%; inactive = the rest."}
{"biological_target": "Mu-type opioid receptor (Homo sapiens) + Delta-type opioid receptor (Homo sapiens) (UniProt P35372+P41143)", "assay": "inducers of mu-delta opioid receptor heterodimers – cell-based, luminescence, primary screen (AID 504326);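 note: 0% = vehicle-treated cells and 100% = reference agonist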", "conditions": "cells, OPRM1-OPRD1 heterodimerization, at 9.3 µM, hits give high values"}
{"smiles": "O=C(OC1CN2CCC1CC2)C(CO)(c1ccccc1)c1ccccc1", "note": "(stereo not drawn)", "activation": "inactive: -0.47%"}
{"smiles": "CC(C)Oc1ccc(C(=O)NCC2(N(C)C)CCCCC2)cc1", "activation": "inactive: 10.2%"}
{"smiles": "O=C(OCCN1CCCC1)C(O)(c1ccccc1)c1ccccc1", "activation": "inactive: -1.11%"}
{"smiles": "CN(C)c1cccc(C(=O)NCC2(N(C)C)CCCCC2)c1", "activation": "inactive: 5.28%"}
{"smiles": "COc1ccc(Br)c(C(=O)NCC2(N3CCCCC3)CCCCC2)c1", "activation": "inactive: -1.44%"}
{"smiles": "COc1cc(C(=O)NCC2(N(C)C)CCCCC2)c([N+](=O)[O-])cc1OC", "activation": "inactive: -1%"}
{"smiles": "O=C(NCC1(N2CCCCC2)CCCCC1)c1cccc(Cl)c1", "activation": "inactive: 0.58%"}
{"smiles": "COc1cccc(C(=O)NCC2(N3CCCCC3)CCCCC2)c1", "activation": "inactive: -1.96%"}
{"smiles": "COc1ccc(Cl)cc1C(=O)NCC1(N(C)C)CCCCC1", "activation": "inactive: -2.92%"}
{"smiles": "Cc1ccccc1C(=O)NCC1(N2CCCCC2)CCCCC1", "activation": "inactive: -2.29%"}
{"smiles": "CN(C)C1CCCC1OC(=O)C(O)(c1ccccc1)c1ccccc1", "note": "(stereo not drawn)", "activation": "inactive: -1.04%"}
{"smiles": "COc1ccc(C(=O)NCC2(N(C)C)CCCCC2)cc1", "activation": "inactive: 3.78%"}
{"smiles": "CCN1CCCC(OC(=O)C2(O)c3ccccc3C=Cc3ccccc32)C1", "note": "(stereo not drawn)", "activation": "inactive: -2.12%"}
{"smiles": "Cc1cc(C(=O)NCC2(N3CCCCC3)CCCCC2)ccc1[N+](=O)[O-]", "activation": "inactive: -1.63%"}
{"smiles": "O=C(NCC1(N2CCCCC2)CCCCC1)c1cccc(Br)c1", "activation": "inactive: -2.12%"}
{"smiles": "C=CCN1CCN(CCOC(=O)C(O)(c2ccccc2)c2ccccc2)CC1", "activation": "inactive: 0.81%"}
{"smiles": "O=C(NCC1(N2CCCCC2)CCCCC1)c1cc(F)c(F)cc1Cl", "activation": "inactive: -1.04%"}
{"smiles": "CN1[C@@H]2CC[C@H]1CC(OC(=O)C(O)(c1ccccc1)c1ccccc1)C2", "note": "(stereo partly drawn)", "activation": "inactive: -2.16%"}
{"smiles": "O=C(NCC1(N2CCCCC2)CCCCC1)c1cc([N+](=O)[O-])ccc1Cl", "activation": "inactive: 0.65%"}
{"smiles": "Cc1ccc(C(=O)NCC2(N3CCCCC3)CCCCC2)cc1", "activation": "inactive: 0.42%"}
{"smiles": "CCN(CC)CC(C)C(C)OC(=O)C(O)(c1ccccc1)c1ccccc1", "note": "(stereo not drawn)", "activation": "inactive: 0.95%"}
{"smiles": "COc1cc(SC)ccc1C(=O)NCC1(N(C)C)CCCCC1", "activation": "inactive: -1.44%"}
{"smiles": "CC(C)N1C(=O)CC2(CCN(CCOC(=O)C(O)(c3ccccc3)c3ccccc3)CC2)C1=O", "activation": "inactive: 1%"}
